The record followed here is PubChem BioAssay AID686996 (Broad Institute, 2013).

Protein sequences, listed by entry. Tags and fused reporters are not part of them. Residues count along the entry.
UniProt P55212, 24-179 limits assumed: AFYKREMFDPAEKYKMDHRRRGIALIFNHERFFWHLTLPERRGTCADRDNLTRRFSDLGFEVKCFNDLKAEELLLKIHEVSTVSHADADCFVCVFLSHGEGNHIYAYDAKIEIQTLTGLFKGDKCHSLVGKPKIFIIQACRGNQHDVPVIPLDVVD
UniProt P55212, 194-293 limits assumed: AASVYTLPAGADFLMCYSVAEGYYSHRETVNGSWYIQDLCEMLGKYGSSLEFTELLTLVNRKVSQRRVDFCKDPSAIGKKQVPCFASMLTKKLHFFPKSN

The entries are a selection whose mix differs from that of the whole data set. The source made the active and inactive calls.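 The calls were made as follows: active = mean inhibition across replicates at least about 35%, with every replicate also reaching that limit (limit read from the data); inconclusive = only one of the two criteria met; inactive = neither criterion met.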

This experiment deals with Caspase-6 (Homo sapiens) (UniProt P55212). In words: inhibition of CASP6 peptide cleavage – biochemical, VEID-R110 fluorescence, single point, set 2, primary screen (AID 686996).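 Also: 0% = median of neutral control wells and 100% = no fluorescence left.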 Particulars: purified caspase-6, Z-VEID-R110 cleavage fluorescence; at 12.5 µM; active compounds read high.
One may read the inhibition as the change of the read-out against control, counted positive when it falls. `O=C(NCC1(N2CCCCC2)CCCCC1)c1ccc(Cl)nc1`: the inhibition is inactive: -4.42%.

In the case of `O=c1[nH]c2ccccc2n1C1CCN(C(c2ccccc2OC(F)(F)F)c2nnnn2C2CCCCC2)CC1` (centres undefined), the inhibition was inactive: -3.69%.

Turning to `Cc1cc(C)cc(N(C(=O)c2ccccc2)C2CCN(C(=O)OC(C)(C)C)CC2)c1`, the inhibition was inactive: 2.88%.

Consider `O=P1(N(CCCl)CCCl)SCCCS1`, for which the inhibition was inactive: -6.23%.

Regarding `CCCCn1nnnc1C(c1cc2ccccc2o1)N1CCC(n2c(=O)[nH]c3ccccc32)CC1` (centres undefined), the inhibition is inactive: -2.46%.

Consider `CCCCOc1ccc(C(=O)NCC2(N3CCOCC3)CCCCC2)cc1`, for which the inhibition was inactive: -3.6%.

Consider `O=C(NCC1(N2CCCCC2)CCCCC1)c1ccc(F)cc1`, for which the inhibition is inactive: -7.1%.

Take `CCOC(=O)N1CCC(Nc2ccc(F)cc2)CC1`: the inhibition was inactive: 1.42%.

Take `CC(C)(C)n1nnnc1C(c1ccccc1)N1CCC(n2c(=O)[nH]c3ccccc32)CC1` (centres undefined): the inhibition is inactive: -1.33%.

On to `O=C1CCN(Cc2ccccc2)CC1`, for which the inhibition is inactive: -3.08%.

In the case of `CCOc1ccc(C)cc1CN(CCCl)CCCl`, the inhibition was inactive: -85.1%.

Take `CCOC(=O)N1CCC(Nc2cccc(C)c2)CC1`: the inhibition was inactive: -4.1%.

On to `COc1cc(C(=O)NCC2(N(C)C)CCCCC2)ccc1OC(F)F`, for which the inhibition was inactive: -0.781%.

As to `O=c1[nH]c2ccccc2n1C1CCN(C(c2cccc3ccccc23)c2nnnn2C2CCCC2)CC1` (centres undefined), the inhibition was inactive: -1.09%.

On to `O=c1[nH]c2ccccc2n1C1CCN(C(c2ccccc2)c2nnnn2C2CCCCC2)CC1` (centres undefined), for which the inhibition is inactive: 2.48%.

For `CCN1CCC(Nc2ccc(Cl)cc2)CC1`, the inhibition is inactive: -19.1%.

With `O=c1[nH]c2ccccc2n1C1CCN(C(c2ccccc2OC(F)(F)F)c2nnnn2C2CCCC2)CC1` (centres undefined), the inhibition was inactive: 1.37%.

With `CSc1ccc(C(=O)NCC2(N3CCOCC3)CCCCC2)cc1`, the inhibition was inactive: -2.37%.

Consider `O=C(NCC1(N2CCCCC2)CCCCC1)c1cccc([N+](=O)[O-])c1`, for which the inhibition was inactive: 5.61%.

As for `CC(C)(C)n1nnnc1C(c1ccccc1OC(F)(F)F)N1CCC(n2c(=O)[nH]c3ccccc32)CC1` (centres undefined), the inhibition was inactive: 0.634%.

Regarding `O=C(NCC1(N2CCCCC2)CCCCC1)c1ccc(OC(F)F)cc1`, the inhibition is inactive: -1.11%.

As to `COc1cc(C(=O)NCC2(N3CCCCC3)CCCCC2)ccc1OC(F)F`, the inhibition was inactive: -18.9%.

As for `CN1CCN(CCOC(=O)C(O)(c2ccccc2)c2ccccc2)CC1`, the inhibition is inactive: -0.82%.

For `COc1ccc(NC2CCN(C(=O)OC(C)(C)C)CC2)cc1`, the inhibition is inactive: -0.192%.

As to `CC(C)c1ccc(C(=O)NCC2(N3CCOCC3)CCCCC2)cc1`, the inhibition was inactive: -1.32%.

Turning to `CCCCn1nnnc1C(c1cccc2ccccc12)N1CCC(n2c(=O)[nH]c3ccccc32)CC1` (centres undefined), the inhibition was inactive: -1.4%.

As for `O=C(NCC1(N2CCCCC2)CCCCC1)c1cccc(C(F)(F)F)c1`, the inhibition was inactive: -0.301%.

For `COc1cc(OC)c(C(=O)NCC2(N(C)C)CCCCC2)cc1OC`, the inhibition was inactive: -2.43%.

Turning to `O=C(NCC1(N2CCOCC2)CCCCC1)c1cc(F)c(F)cc1Cl`, the inhibition was inactive: -6.07%.

Consider `CCC(c1nnnn1C(C)(C)C)N1CCC(n2c(=O)[nH]c3ccccc32)CC1` (centres undefined), for which the inhibition was inactive: 3.55%.

Consider `CCCCn1nnnc1C(c1ccnc2ccccc12)N1CCC(n2c(=O)[nH]c3ccccc32)CC1` (centres undefined), for which the inhibition was inactive: 4.47%.

Take `CC(C)c1ccc(NC2CCN(C(=O)OC(C)(C)C)CC2)cc1`: the inhibition was inactive: 2.17%.

Take `COc1ccc(CN(CCCl)CCCl)cc1Cl`: the inhibition was inactive: -46.6%.

`CN(C)c1cccc(C(=O)NCC2(N3CCCCC3)CCCCC2)c1`: the inhibition is inactive: 1.34%.

Take `COc1ccc(C(c2nnnn2C2CCCC2)N2CCC(n3c(=O)[nH]c4ccccc43)CC2)cc1` (centres undefined): the inhibition is inactive: -0.978%.

`Cc1ccc(C(=O)NCC2(N(C)C)CCCCC2)o1`: the inhibition is inactive: -0.48%.

For `CCCOc1ccc(C(=O)NCC2(N(C)C)CCCCC2)cc1OC`, the inhibition was inactive: -1.64%.

As to `CN1CCC(Nc2cccc(F)c2)CC1`, the inhibition is inactive: -7.06%.

`O=C(NCC1(N2CCCCC2)CCCCC1)c1cncc(Br)c1`: the inhibition was inactive: -2%.
